Results on one molecule are retold here after US11530237B2, “Compositions and methods for treating CNS disorders” (Sage Therapeutics, Inc., priority 2014, dated 2022).

For this test, the target named is α1β2γ2 GABAA receptors (Homo sapiens (Human), UniProt P14867+P47870). Put plainly: Patch clamp electrophysiology (QPatch) of recombinant α1β2γ2 GABAA receptors in LTK cells. It is filed as cell-based. The conditions noted are these: 10 μM test article, GABA EC20 = 2 μM, read-out: GABA (α1β2γ2) Qpatch in Ltk, % efficacy at 10 μM. How it is done: Cellular electrophysiology is used to measure the pharmacological properties of our GABAA receptor modulators in heterologous cell systems. Each compound is tested for its ability to affect GABA mediated currents at a suhmaximal agonist dose (GABA EC20=2 μM). LTK cells are stably transfected with the α1β2γ2 subunits of the GABA receptor and CHO cells are transiently transfected with the α4β3δ subunits via the Lipofecatamine method. Cells were passaged at a confluence of about 50-80% and then seeded onto 35 mm sterile culture dishes containing 2 ml culture complete medium without antibiotics or antimycotics. Confluent clusters of cells are electrically coupled (Pritchett et al., Science, 1988, 242, 1306-1308). Because responses in distant cells are not adequately voltage clamped and because of uncertainties about the extent of coupling (Verdoom et al., Neuron 1990, 4, 919-928), cells were cultivated at a density that enables the recording of single cells (without visible connections to other cells).
Whole cell currents were measured with HEKA EPC-10 amplifiers using PatchMaster software or by using the high throughput QPatch platform (Sophion). […]
Cells were voltage clamped at a holding potential of −80 mV. […] GABAA receptors α1β2γ2 and α4β3δ% efficacy: “A” 10-100, “B”>100-500, “C”>500; D indicates the data is not available or has not been determined.
On the technique in general: The patch-clamp technique gives a direct electrical read-out from membranes.

Consider `COC[C@@]1(O)CC[C@@]2(C)[C@@H](CC[C@@H]3[C@@H]2CC[C@]2(C)[C@@H](C(=O)Cn4cc(C(=O)N(C)C)cn4)CC[C@@H]32)C1` [Compound 162], for which the Emax at 10 µM is over 500%.
